Source: patent publication US9266877B2, “Apoptosis-inducing agents for the treatment of cancer and immune and autoimmune diseases” (priority 2011, dated 2016)

By UniProt entry, the sequences of proteins in these tests, tags left out.
UniProt Q07817, whole entry: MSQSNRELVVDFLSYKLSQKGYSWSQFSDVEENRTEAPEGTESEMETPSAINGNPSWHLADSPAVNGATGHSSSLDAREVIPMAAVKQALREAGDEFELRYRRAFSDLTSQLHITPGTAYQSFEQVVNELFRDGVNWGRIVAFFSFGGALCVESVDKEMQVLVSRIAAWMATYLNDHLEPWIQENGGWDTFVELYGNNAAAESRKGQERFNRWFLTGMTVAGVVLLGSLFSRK

Target: Bcl-xL (Homo sapiens (Human), UniProt Q07817)
Assay: Time Resolved-Fluorescence Resonance Energy Transfer (TR-FRET) binding assay, competition with F-Bak
Settings: competition with F-Bak probe, GST-Bcl-xL

Row | SMILES | Ki
1 | Cc1c(-c2ccc(N3CCc4cccc(C(=O)Nc5nc6ccccc6s5)c4C3)nc2C(=O)O)cnn1C[C@@H]1CC[C@@H]2C[C@H]1C2(C)C [Example 85, 6-[8-(1,3-benzothiazol-2-ylcarbamoyl)-3,4-dihydroisoquinolin-2(1H)-yl]-3-(1-{[(1R,2R,5R)-6,6-dimethylbicyclo[3.1.1]hept-2-yl]methyl}-5-methyl-1H-pyrazol-4-yl)pyridine-2-carboxylic acid] | 0.7 nM
2 | Cc1c(-c2ccc(N3CCc4cccc(C(=O)Nc5nc6ccccc6s5)c4C3)nc2C(=O)O)cnn1C[C@@H]1CC[C@H]2C[C@@H]1C2(C)C [Example 86, 6-[8-(1,3-benzothiazol-2-ylcarbamoyl)-3,4-dihydroisoquinolin-2(1H)-yl]-3-(1-{[(1S,2R,5S)-6,6-dimethylbicyclo[3.1.1]hept-2-yl]methyl}-5-methyl-1H-pyrazol-4-yl)pyridine-2-carboxylic acid] | 2 nM
3 | Cc1c(-c2ccc(N3CCc4cccc(C(=O)Nc5nc6ccccc6s5)c4C3)nc2C(=O)O)cnn1C[C@@H]1C[C@@H]2C=C[C@H]1C2 [Example 91, 6-[8-(1,3-benzothiazol-2-ylcarbamoyl)-3,4-dihydroisoquinolin-2(1H)-yl]-3-{1-[(1R,2R,4R)-bicyclo[2.2.1]hept-5-en-2-ylmethyl]-5-methyl-1H-pyrazol-4-yl}pyridine-2-carboxylic acid] | 0.9 nM
4 | Cc1c(-c2ccc(N3CCc4cccc(C(=O)Nc5nc6ccccc6s5)c4C3)nc2C(=O)O)cc(C#N)n1CC1(N2CCCCC2)CCCCC1 [Example 131, 6-[8-(1,3-benzothiazol-2-ylcarbamoyl)-3,4-dihydroisoquinolin-2(1H)-yl]-3-(5-cyano-2-methyl-1-{[1-(piperidin-1-yl)cyclohexyl]methyl}-1H-pyrrol-3-yl)pyridine-2-carboxylic acid] | < 0.1 nM
5 | O=C(Nc1nc2ccccc2s1)c1cccc2c1CN(c1ccc(-c3ccc4c(c3)CCN(CC3CCCCC3)C4)c(C(=O)O)n1)CC2 [Example 137, 6-[8-(1,3-benzothiazol-2-ylcarbamoyl)-3,4-dihydroisoquinolin-2(1H)-yl]-3-[2-(cyclohexylmethyl)-1,2,3,4-tetrahydroisoquinolin-6-yl]pyridine-2-carboxylic acid] | 1.5 nM
6 | Cc1c(-c2ccc(N3CCc4cccc(C(=O)Nc5nc6ccccc6s5)c4C3)nc2C(=O)O)nnn1C[C@@H]1CC[C@H]2C[C@@H]1C2(C)C [Example 158, 6-[8-(1,3-benzothiazol-2-ylcarbamoyl)-3,4-dihydroisoquinolin-2(1H)-yl]-3-(1-{[(1S,2R,5S)-6,6-dimethylbicyclo[3.1.1]hept-2-yl]methyl}-5-methyl-1H-1,2,3-triazol-4-yl)pyridine-2-carboxylic acid] | < 0.1 nM
7 | Cc1c(-c2ccc(N3CCc4cccc(C(=O)Nc5nc6ccccc6s5)c4C3)nc2C(=O)O)ccnc1N(C)C1CCCCC1 [Example 161, 6-[8-(1,3-benzothiazol-2-ylcarbamoyl)-3,4-dihydroisoquinolin-2(1H)-yl]-2′-[cyclohexyl(methyl)amino]-3′-methyl-3,4′-bipyridine-2-carboxylic acid] | < 0.1 nM
